Assay results: US20170074857A1, “MEDICATION ADHERENCE MONITORING DEVICE” (UNIVERSITY OF FLORIDA RESEARCH FOUNDATION, INC., priority 2014, published 2017)

What was measured:
[1] = cited from earlier work
[2] = orally; FDA Q3C guidance; cited from earlier work
[3] = rats; Dietz; cited from earlier work

For 2-butanol [Formulation 2-butanol], the “ketone:alcohol ratio 2-butanone/2-butanol in breath” value (2-butanol ingested (oral)) is given as greater than 1, the “ketone:alcohol ratio 2-butanone/2-butanol in breath” value (non-oral routes (e.g., transdermal, mucous membranes, intravenous, eye)) is given as less than 1 and the “LD50 Oral Rat” value [1] is given as 6480 mg/kg. For the same substance, the “permissible daily exposure (PDE)” value [2] was 300 mg/day and the “ingested 2-butanol metabolized to 2-butanone” value [3] was “approximately 97%”.

Read-outs that look alike come from different tables or passages of the source.
